This passage reports radiomodifying influence and radiomodifying effect results from EP0603412A1, “COMPOUNDS BASED ON PALLADIUM AND ON DERIVATIVES OF AROMATIC AMINES AND METHOD OF OBTAINING THEM” (priority 1992, dated 1993).

This experiment relates to male hybrid mice F₁(CBAxC₅₇BL). Kind of experiment: Radiomodifying effect under single total γ-irradiation (survival, LD50/8, LD50/30, DCF). Format: in vivo. How it is done:
About two thousands animals have been used in tests.
Before irradiation control group of animals was intravenously administered isotonic saline solution in amount of 0.3 ml per mouse.
The mice were placed into the glass containers inserted into irradiation zone. The radiation sources were arranged in the form of "squirrel cage". The radiation doses were established by duration of the stay in active zone. […] The animals were irradiated in the range from 4.0 to 10 Gr.
A survival rate was determined on the 8th and 30th day of observation. From the data obtained were derived the curves illustrating a dependence of the survival rate upon a radiation dosage on a percentage basis. LD50/8 and LD50/30 values were estimated by extrapolation to the dosage scale.
A radiomodifying effect was evaluated by a dose change factor (DCF) calculated from the ratio of LD₅₀ in test to LD₅₀ in control.

On to “N-methyl-N-(1-phenyl-1-hydroxy-prop-2-yl)ammonium palladium tetrachloride [Ephazole]”, for which the radiomodifying influence result (administering 4 hours before irradiation) is recorded as “freedom from radiomodifying influence”. In addition, the radiomodifying effect entry (within 6 hours after irradiation) is listed as “full absence”.
